Read-outs that look alike come from different tables or passages of the source.
Conditions: 20 mg/mL, 24 h

For Cc1cc2c(cc1CC(=O)c1sccc1S(=O)(=O)Nc1onc(C)c1Cl)OCO2.[Na] [sodium], which “percent remaining (HPLC)” value (5% dextrose + K-phosphate buffer, 2.5% w/v (pH 6.5)) is on record?
Its value is 89.4%.

And the “percent remaining (HPLC)” value (10% dextrose + 10% PG)?
Its value is 95.6%.
